Data reported in ChEMBL document CHEMBL1126779, “Antagonism of 1-(2,5-dimethoxy-4-methylphenyl)-2-aminopropane stimulus with a newly identified 5-HT2- versus 5-HT1C-selective antagonist” (J Med Chem, 1993).

The chains behind the UniProt entries cited, without tags or fusion partners.
UniProt P19327, whole entry: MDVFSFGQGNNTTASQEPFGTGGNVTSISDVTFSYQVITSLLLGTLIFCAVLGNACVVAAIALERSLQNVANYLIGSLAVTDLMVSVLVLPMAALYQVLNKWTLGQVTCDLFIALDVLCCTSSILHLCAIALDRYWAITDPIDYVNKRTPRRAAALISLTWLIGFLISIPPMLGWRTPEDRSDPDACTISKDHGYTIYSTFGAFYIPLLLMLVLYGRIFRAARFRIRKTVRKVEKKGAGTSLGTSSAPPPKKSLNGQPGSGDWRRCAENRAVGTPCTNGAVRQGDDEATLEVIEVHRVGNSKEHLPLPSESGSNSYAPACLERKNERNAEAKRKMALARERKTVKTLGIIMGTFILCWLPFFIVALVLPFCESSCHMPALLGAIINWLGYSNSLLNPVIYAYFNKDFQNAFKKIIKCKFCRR

Target: 5-hydroxytryptamine receptor 1A (Rattus norvegicus, UniProt P19327)
Test: Tested for binding affinity against 5-hydroxytryptamine 1A receptor from rat frontal cortical regions using [3H]8-OH-DPAT as radioligand

With `O=C(NC1CCN(CCCOc2ccc(F)cc2)CC1)c1ccccc1` as the compound, how does the pKi read?
Its pKi is 5.40.

pKi: −log10 of the molar value.
